Assay results reported in BindingDB's records for patent US20230322822 (Chengdu Di''Ao Jiuhong Pharmaceutical Factory, 2023).
pIC50: −log10 of the molar value.

The chains behind the UniProt entries cited, without tags or fusion partners. Residues count along the entry.
UniProt P00533, 25-1210 T790M/C797S/L858R limits assumed: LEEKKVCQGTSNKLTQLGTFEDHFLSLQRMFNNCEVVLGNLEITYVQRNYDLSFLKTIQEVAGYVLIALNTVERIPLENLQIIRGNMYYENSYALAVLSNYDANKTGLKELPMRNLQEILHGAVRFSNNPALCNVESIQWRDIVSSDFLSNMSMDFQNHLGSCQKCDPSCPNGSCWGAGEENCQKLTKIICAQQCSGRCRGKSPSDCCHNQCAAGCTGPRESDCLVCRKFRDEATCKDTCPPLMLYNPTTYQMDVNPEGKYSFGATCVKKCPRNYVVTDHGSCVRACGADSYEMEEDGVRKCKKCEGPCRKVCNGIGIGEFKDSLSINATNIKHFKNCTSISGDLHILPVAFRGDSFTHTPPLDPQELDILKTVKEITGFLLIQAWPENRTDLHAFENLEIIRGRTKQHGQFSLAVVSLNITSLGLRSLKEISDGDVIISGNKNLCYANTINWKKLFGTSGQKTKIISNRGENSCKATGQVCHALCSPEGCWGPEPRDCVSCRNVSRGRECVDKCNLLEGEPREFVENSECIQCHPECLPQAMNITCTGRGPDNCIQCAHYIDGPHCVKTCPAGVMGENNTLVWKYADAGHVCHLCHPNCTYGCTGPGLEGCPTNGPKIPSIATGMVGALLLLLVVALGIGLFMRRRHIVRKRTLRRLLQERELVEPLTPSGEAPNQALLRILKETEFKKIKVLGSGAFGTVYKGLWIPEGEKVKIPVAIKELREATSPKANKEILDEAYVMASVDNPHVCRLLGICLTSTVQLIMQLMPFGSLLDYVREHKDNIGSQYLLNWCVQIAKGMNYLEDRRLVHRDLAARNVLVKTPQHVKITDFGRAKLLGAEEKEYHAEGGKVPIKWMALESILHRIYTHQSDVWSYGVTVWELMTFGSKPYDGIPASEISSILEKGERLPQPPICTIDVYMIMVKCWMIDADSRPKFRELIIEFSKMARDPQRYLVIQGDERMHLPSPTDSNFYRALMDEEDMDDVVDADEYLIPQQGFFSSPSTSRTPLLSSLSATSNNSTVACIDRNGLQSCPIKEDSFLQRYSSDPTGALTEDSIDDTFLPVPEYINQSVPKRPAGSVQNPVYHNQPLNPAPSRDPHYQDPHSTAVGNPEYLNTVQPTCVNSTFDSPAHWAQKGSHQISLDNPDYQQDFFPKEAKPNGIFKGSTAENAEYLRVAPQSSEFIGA

Molecular target: Epidermal growth factor receptor [L858R,T790M,C797S] (Homo sapiens, UniProt P00533, C797S/L858R/T790M)
Assay: EGFR kinase Enzymatic Activity Test 1

pIC50: 7.67
SMILES: COc1cc(N2CCC(N3CCN(C)CC3)CC2)c(C)cc1Nc1ncc(Br)c(Nc2ccc(C)cc2P(C)(C)=O)n1 [US20230322822, Compound 2]
